In US8283336B2, “Unit dosage for brain health” (N. V. Nutricia, priority 2007, dated 2012):

System: muscarinic acetylcholine receptor
Assay: oxotremorine-induced membrane potential change in PC12 cells after incubation with nutrients (receptor functionality)
Type: cell-based
Conditions: 1 day of incubation, then 50 μM oxotremorine, percentage change compared to control conditions
Protocol: After 1 day of incubation the medium+additions were replaced by control medium and the cells were stimulated with 50 μM oxotremorine, an agonist at the muscarinic acetylcholine receptor, involved in learning and memory. Oxotremorine induces a depolarization of the membrane which can be measured as a change in membrane potential. At a fixed dose of the agonist, increases in membrane potential are thought to reflect improvements in receptor functioning.

Cc1c(C)c2c(c(C)c1O)CC[C@@](C)(CCC[C@H](C)CCC[C@H](C)CCCC(C)C)O2 [alpha-tocopherol]
membrane potential change: did not affect membrane potential change
